Measurements taken from patent publication US11352322B2, “Cyclopropyl-amide compounds as dual LSD1/HDAC inhibitors” (Jubilant Epicore LLC, priority 2016, dated 2022).
Counter-ions that a name gives are not always drawn.

tested on: MM1S; test: Anticancer activity: Alamar Blue assay, MM1S; format: cell-based; details: Homo sapiens, MM1.S, read-out: MM1S EC50

Row | Compound | EC50
1 | O=C(/C=C/c1ccc(CNC2CC2c2ccc(F)cc2)cc1)NO (stereo not drawn) [Example 2, (E)-3-(4-{[2-(4-Fluoro-phenyl)-cyclopropylamino]-methyl}-phenyl)-N-hydroxy-acrylamide TFA Salt] | 0.023 µM
2 | Nc1ccccc1NC(=O)/C=C/c1ccc(CNC2CC2c2ccc(F)cc2)cc1 (stereo not drawn) [Example 120] | 0.361 µM
3 | Nc1ccccc1NC(=O)c1ccc(CCCN2CC(CNC3CC3c3ccc(F)cc3)C2)cc1 (stereo not drawn) [Example 126, N-(2-aminophenyl)-4-(3-(3-(((2-(4-fluorophenyl)cyclopropyl)amino)methyl)azetidin-1-yl)propyl)benzamide TFA Salt] | 0.012 µM
